Key:
[1] = tested on: neuroblastoma cells; details: cited from earlier work
[2] = tested on: hESC; test: P4 synthesis and secretion by hESC, ELISA of P4 in media; type: cell-based, human
Source text: Results are expressed as ug P4/ug cellular protein (mean±SEM, n=3, *p<0.001).

| Substance | cytotoxicity [1] | oxidative stress [1] | tau phosphorylation [1] | P4 synthesis and secretion from hESC ([2]; hCG 500 mIU/mL each day for 6 d) | cholesterol transport by steroidogenic acute regulatory protein (StAR) in hESC ([2]; hESC treated with hCG) |
| --- | --- | --- | --- | --- | --- |
| LH: luteinizing hormone, a gonadotropin | induces cytotoxicity | increases oxidative stress | dose-dependently alters tau phosphorylation | – | – |
| hCG: Human chorionic gonadotropin | – | – | – | induces P4 synthesis and secretion | rapidly upregulated cholesterol transport by steroidogenic acute regulatory protein (StAR) |
